Key:
Homo sapiens [1] = species: Homo sapiens; assay: Selectivity ratio of IC50 for Aurora-A autophosphorylation at Thr288 in human HCT116 cells to IC50 for Aurora-B autophosphorylation at Thr232 in human HCT116 cells; assay type: cell-based
Homo sapiens [2] = species: Homo sapiens; assay: Selectivity ratio of IC50 for Aurora-B autophosphorylation at Thr232 in human HCT116 cells to IC50 for Aurora-A autophosphorylation at Thr288 in human HCT116 cells; assay type: cell-based

SMILES | Ratio IC50 (Homo sapiens [1]) | Ratio IC50 (Homo sapiens [2])
CN(C)Cc1ccccc1NC(=O)Nc1ccc(CCNc2ncnc3oc(-c4ccccc4)c(Cl)c23)cc1 | 3.1 | 
O=C(Nc1ccc(CCNc2ncnc3oc(-c4ccccc4)c(Cl)c23)cc1)Nc1ccccc1CN1CCC(O)CC1 | 11.4 | 
CN(C)Cc1cccc(NC(=O)Nc2ccc(CCNc3ncnc4oc(-c5ccccc5)c(Cl)c34)cc2)c1 |  | > 167
CCN(C)Cc1cccc(NC(=O)Nc2ccc(CCNc3ncnc4oc(-c5ccccc5)c(Cl)c34)cc2)c1 |  | > 75.6
O=C(Nc1ccccc1)Nc1ccc(CCNc2ncnc3oc(-c4ccccc4)c(Cl)c23)cc1 | 2 | 

Source: ChEMBL document CHEMBL4152212, “Design and synthesis of BPR1K653 derivatives targeting the back pocket of Aurora kinases for selective isoform inhibition” (Eur J Med Chem, 2018)
